In ChEMBL document CHEMBL1153282, “N-substituted 2'-(aminoaryl)benzothiazoles as kinase inhibitors: hit identification and scaffold hopping” (Bioorg Med Chem Lett, 2009) one finds IC50 data, which are given here for two molecules.

The chains behind the UniProt entries cited, without tags or fusion partners. Residues count along the entry.
UniProt P04626, whole entry: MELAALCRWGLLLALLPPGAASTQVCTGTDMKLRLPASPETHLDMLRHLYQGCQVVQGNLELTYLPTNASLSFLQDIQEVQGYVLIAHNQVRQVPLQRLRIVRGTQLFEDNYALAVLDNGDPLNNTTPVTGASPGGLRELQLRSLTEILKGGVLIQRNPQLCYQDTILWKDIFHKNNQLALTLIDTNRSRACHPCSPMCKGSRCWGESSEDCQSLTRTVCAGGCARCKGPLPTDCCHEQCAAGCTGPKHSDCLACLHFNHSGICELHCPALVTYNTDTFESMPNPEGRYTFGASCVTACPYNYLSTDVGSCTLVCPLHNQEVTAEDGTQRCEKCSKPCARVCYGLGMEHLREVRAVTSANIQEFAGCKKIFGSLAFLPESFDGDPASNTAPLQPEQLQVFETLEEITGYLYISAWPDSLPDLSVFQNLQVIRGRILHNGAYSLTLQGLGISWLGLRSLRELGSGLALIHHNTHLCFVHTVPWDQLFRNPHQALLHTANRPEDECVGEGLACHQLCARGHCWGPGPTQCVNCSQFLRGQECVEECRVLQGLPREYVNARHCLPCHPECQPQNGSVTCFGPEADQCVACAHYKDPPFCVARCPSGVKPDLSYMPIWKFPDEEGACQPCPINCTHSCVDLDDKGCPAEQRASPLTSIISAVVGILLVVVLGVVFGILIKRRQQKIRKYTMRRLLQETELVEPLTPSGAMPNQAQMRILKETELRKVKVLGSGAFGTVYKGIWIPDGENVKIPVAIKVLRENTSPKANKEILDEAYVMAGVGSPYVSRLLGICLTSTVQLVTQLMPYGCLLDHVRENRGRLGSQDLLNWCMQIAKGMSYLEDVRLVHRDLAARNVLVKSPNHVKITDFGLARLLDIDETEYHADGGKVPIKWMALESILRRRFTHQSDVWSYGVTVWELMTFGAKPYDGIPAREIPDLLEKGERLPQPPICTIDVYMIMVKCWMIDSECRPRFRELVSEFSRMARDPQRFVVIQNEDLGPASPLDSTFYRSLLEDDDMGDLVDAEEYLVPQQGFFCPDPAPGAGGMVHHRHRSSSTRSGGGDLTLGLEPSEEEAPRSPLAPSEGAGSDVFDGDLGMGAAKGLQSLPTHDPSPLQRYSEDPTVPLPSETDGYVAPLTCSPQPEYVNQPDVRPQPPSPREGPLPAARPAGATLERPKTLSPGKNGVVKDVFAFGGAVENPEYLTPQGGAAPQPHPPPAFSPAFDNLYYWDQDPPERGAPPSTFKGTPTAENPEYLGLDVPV
UniProt P06213, 28-758 limits assumed: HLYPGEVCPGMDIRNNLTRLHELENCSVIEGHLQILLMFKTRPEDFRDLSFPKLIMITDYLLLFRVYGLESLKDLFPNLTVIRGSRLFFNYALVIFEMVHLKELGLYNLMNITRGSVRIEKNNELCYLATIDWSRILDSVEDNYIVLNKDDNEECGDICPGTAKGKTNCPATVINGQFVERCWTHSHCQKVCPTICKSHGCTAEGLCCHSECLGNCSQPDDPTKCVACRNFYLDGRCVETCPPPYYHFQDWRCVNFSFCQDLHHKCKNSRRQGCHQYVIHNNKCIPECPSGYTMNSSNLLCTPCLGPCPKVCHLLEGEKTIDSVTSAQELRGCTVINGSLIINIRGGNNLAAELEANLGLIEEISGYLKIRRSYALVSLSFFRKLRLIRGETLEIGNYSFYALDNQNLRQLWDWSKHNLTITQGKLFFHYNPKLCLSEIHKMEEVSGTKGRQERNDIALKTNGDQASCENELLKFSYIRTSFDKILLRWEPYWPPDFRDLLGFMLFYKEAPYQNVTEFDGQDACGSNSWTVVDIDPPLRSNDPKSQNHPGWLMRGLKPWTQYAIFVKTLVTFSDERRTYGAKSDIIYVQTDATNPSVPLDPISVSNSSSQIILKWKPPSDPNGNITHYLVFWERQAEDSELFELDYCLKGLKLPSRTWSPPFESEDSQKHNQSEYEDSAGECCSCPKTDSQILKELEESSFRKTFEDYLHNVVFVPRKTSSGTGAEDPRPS
UniProt P06213, 763-1382 limits assumed: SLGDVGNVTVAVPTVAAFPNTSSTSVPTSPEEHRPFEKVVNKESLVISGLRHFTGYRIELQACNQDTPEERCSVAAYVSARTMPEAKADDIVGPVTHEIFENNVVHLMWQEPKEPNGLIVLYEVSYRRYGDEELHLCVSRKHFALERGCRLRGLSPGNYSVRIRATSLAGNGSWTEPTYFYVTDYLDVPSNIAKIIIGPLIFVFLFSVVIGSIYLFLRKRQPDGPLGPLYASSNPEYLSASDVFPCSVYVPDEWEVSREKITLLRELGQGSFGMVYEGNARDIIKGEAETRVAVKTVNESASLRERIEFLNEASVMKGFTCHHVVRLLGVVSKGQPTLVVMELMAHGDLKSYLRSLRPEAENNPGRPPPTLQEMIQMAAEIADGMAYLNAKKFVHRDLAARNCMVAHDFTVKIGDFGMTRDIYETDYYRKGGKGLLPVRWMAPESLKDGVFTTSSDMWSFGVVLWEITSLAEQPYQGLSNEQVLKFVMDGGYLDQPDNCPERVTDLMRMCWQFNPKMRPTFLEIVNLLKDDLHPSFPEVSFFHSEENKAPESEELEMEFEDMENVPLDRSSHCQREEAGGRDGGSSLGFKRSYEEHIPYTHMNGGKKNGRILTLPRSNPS
UniProt P00533, whole entry: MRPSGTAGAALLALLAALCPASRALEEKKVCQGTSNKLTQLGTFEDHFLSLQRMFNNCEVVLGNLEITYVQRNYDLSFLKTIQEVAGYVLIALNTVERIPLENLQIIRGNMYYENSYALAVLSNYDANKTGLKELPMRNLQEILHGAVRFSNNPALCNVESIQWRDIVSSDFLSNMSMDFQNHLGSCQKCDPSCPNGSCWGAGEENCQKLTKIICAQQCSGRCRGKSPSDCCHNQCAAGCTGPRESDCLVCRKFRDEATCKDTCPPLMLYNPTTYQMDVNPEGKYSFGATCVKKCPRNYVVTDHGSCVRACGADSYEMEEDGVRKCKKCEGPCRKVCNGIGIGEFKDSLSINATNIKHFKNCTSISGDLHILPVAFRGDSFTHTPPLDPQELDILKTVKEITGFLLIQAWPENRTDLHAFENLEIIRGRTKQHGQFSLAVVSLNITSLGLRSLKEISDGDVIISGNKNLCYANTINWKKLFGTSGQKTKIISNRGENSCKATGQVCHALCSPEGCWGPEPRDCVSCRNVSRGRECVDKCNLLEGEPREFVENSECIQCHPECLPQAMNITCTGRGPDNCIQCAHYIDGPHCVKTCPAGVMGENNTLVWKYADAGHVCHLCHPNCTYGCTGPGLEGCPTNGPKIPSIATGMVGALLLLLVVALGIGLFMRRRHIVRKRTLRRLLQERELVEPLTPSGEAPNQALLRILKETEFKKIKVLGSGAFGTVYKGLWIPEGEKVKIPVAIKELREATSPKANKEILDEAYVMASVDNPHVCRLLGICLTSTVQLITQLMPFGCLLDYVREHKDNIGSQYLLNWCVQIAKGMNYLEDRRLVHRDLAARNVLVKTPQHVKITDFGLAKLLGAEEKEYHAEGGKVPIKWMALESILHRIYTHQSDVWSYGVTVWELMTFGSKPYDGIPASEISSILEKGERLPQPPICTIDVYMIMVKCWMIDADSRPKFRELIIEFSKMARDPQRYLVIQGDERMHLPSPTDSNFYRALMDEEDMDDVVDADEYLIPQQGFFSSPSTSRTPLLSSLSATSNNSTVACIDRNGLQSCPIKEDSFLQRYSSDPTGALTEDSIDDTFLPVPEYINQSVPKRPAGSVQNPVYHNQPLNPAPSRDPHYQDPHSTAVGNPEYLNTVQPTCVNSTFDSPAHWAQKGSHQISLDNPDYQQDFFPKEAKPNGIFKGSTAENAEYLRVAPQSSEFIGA
UniProt P35968, whole entry: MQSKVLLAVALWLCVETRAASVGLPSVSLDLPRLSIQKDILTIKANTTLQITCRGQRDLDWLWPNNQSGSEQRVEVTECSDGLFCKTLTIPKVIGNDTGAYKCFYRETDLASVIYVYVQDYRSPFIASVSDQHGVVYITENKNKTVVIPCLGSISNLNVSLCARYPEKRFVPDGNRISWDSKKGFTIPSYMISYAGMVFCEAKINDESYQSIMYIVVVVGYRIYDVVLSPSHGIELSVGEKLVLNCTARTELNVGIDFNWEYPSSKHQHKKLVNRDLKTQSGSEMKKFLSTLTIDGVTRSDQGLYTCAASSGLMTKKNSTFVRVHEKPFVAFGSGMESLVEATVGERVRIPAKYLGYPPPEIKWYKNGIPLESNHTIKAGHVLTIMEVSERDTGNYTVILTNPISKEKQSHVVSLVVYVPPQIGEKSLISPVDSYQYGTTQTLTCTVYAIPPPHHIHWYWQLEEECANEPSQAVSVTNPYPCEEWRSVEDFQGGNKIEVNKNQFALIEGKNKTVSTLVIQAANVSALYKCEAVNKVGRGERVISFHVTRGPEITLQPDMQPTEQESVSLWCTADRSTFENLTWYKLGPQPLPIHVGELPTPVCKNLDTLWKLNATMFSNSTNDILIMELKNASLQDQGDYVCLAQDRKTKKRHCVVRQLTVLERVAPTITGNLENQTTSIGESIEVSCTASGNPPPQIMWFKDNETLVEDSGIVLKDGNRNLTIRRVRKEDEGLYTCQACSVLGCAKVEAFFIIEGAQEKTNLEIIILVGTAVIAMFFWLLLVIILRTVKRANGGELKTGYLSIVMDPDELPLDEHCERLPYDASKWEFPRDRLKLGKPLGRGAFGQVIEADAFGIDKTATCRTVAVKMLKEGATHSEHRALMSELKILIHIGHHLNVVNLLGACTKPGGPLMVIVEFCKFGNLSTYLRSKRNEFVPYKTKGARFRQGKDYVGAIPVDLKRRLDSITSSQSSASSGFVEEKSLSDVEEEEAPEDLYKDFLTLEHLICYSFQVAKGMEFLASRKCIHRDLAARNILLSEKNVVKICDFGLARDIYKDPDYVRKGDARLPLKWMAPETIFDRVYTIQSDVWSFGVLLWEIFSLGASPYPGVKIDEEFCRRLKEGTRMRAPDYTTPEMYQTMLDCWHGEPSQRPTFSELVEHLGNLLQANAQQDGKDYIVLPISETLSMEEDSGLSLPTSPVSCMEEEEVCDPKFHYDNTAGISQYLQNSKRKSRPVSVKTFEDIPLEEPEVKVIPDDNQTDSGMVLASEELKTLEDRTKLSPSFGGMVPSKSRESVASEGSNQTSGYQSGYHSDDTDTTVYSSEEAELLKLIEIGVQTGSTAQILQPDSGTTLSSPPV

Assay [1] has as its target Receptor tyrosine-protein kinase erbB-2 (Homo sapiens, UniProt P04626). The assay is described as follows: Inhibition of ErbB2 by virtual HTS assay.
A further assay concerns the target Insulin receptor (Homo sapiens, UniProt P06213). The assay can be described thus: Inhibition of insulin receptor by virtual HTS assay.
The target of assay [2] is Epidermal growth factor receptor (Homo sapiens, UniProt P00533). The assay is described as follows: Inhibition of EGFR by virtual HTS assay.
For assay [3], the target named is Vascular endothelial growth factor receptor 2 (Homo sapiens, UniProt P35968). The assay can be described thus: Inhibition of VEGFR2 by virtual HTS assay.

The term IC50 denotes the point on the concentration scale where inhibition reaches its midpoint. Low values mean inhibition by little substance, high ones a need for much substance. For `CNc1ccnc(Nc2ccc(-c3nc4ccccc4s3)cc2)n1`, the IC50 (in assay [1]; at Insulin receptor; in assay [2]) was > 10 µM each time.

The molecule `COc1cc2nc(Nc3cc(C)[nH]n3)nc(Nc3cccc(-c4nc5ccccc5s4)c3)c2cc1OC` showed an IC50 in assay [3] of 1.9 µM.
